Laboratory results reported in patent publication US4831033A (City of Hope, priority 1988, dated 1989).

The chains behind the UniProt entries cited, without tags or fusion partners. Residues count along the entry.
UniProt O42275, 24-633: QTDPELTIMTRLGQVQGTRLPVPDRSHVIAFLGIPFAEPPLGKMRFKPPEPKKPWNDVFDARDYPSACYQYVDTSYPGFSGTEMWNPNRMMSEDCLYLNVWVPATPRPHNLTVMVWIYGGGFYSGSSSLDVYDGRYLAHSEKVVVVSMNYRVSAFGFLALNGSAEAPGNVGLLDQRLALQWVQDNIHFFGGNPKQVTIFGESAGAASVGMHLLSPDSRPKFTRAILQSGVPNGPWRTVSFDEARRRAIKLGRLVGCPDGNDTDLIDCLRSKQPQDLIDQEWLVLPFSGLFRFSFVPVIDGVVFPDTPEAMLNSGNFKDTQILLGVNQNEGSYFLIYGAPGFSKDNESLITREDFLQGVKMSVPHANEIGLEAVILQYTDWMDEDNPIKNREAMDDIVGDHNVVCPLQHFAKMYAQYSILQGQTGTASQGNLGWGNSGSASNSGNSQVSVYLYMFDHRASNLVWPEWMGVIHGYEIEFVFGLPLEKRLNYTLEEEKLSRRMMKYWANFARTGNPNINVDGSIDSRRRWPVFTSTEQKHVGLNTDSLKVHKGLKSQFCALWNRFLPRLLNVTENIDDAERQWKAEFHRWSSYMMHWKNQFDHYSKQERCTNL

What was measured:
Acetylcholinesterase = molecular target: T1, Acetylcholinesterase (Electrophorus electricus, UniProt O42275); assay: Acetylcholinesterase activity, acetylthiocholine substrate, colorimetric (Ellman); format: biochemical, electric eel
T1 construct: prepared from the electric organ of the electric eel; from tissue; host or cells: electric organ of the electric eel

[1] = system: K^+ transport, P3 membrane fractions from whole brains of Swiss mice; assay: K^+ transport (^86 Rb uptake) in P3 membrane fractions; format: biochemical

Nc1c2ccccc2nc2ccccc12 [9-aminoacridine]
cholinesterase inhibitory potency compared with amodiaquin (in words) (Acetylcholinesterase): less than one-tenth | concentration inhibiting acetylcholinesterase (selection criterion) (Acetylcholinesterase; micromolar or lower concentrations): ≤ 10^6 M | K^+ Transport Relative Potency ([1]; relative to amodiaquin): 0.57 | concentration inhibiting K^+ transport (selection criterion) ([1]; submillimolar concentrations): ≤ 10^-3 M
